Read-outs that look alike come from different tables or passages of the source.
Target: Neutrophil Elastase (NE) (Mus musculus, UniProt Q3UP87)
Conditions: db/db mouse, day 8

By UniProt entry, the sequences of proteins in these tests, tags left out. Residues count along the entry.
UniProt Q3UP87, 27-265: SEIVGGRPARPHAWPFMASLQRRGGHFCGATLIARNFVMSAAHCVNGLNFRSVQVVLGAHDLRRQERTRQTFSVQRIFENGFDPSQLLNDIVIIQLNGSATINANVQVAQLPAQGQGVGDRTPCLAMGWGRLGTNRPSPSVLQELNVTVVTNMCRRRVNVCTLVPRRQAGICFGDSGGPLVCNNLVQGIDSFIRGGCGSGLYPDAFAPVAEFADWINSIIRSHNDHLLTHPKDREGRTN

With `CC1=C(C#N)[C@@H](c2ccc(C#N)cc2S(C)(=O)=O)N(C)C(=O)N1c1cccc(C(F)(F)F)c1` [Example 5, (4 S)-4-[4-Cyano-2-(methylsulfonyl)phenyl]-3,6-dimethyl-2-oxo-1-[3-(trifluoromethyl)phenyl]-1,2,3,4-tetrahydropyrimidine-5-carbonitrile] the “NE activity in wound tissue” value (0.03 mg/kg BW o.d. p.o.) was 7850 ng/mL equivalent, the “NE activity in wound tissue” value (0.1 mg/kg BW o.d. p.o.) was 8237 ng/mL equivalent and the “NE activity in wound tissue” value (3.0 mg/kg BW o.d. p.o.) was 4159 ng/mL equivalent. The “NE activity in wound tissue” value (10.0 mg/kg BW o.d. p.o.) was 2177 ng/mL equivalent.

Source: patent US20210113563A1, “4-(4-CYANO-2-THIOARYL)DIHYDROPYRIMIDINONES FOR TREATING CHRONIC WOUNDS” (pH Pharma Co., Ltd., priority 2015, published 2021)
